Test results reported in US11548915B2, “Composition for overcoming resistance to EGFR-targeting agent” (Pinetree Therapeutics, Inc., priority 2016, dated 2023).

What was measured:
[1] = test system: H1299; assay: WST-1 cell viability assay; conditions: H1299 lung cancer cell line
[2] = test system: HCC44; assay: WST-1 cell viability after Ctx treatment of siRNA-treated cells; format: cell-based; conditions: Ctx 2 μM, 48 hours
[3] = test system: SK-LU-1; assay: WST-1 cell viability assay; conditions: SK-LU-1 lung cancer cell line
[4] = Mouse weight during xenograft experiments; conditions: BxPC-3, PANC-1 and AsPC-1 xenograft mice; compared to PBS
[5] = test system: AsPC-1; assay: MTT cell proliferation assay
[6] = test system: H460; assay: WST-1 cell viability assay; conditions: H460 lung cancer cell line
[7] = test system: Ctx^R BxPC-3 xenograft; assay: In vivo tumor growth inhibition, xenograft; conditions: intravenous, compared to the control PBS

In the case of cetuximab [Ctx], the “Responsiveness to Cetuximab” value [1] is reported as “Resistant”, the “resistance to Ctx when NRP1 expression is inhibited” value ([2]; NRP1 siRNA 100 nM) is reported as “overcame resistance to Ctx; also recorded: could overcome resistance to Ctx” and the “resistance to Ctx when TGFβ2 expression is inhibited” value ([2]; TGFβ2 siRNA 100 nM) is reported as “could not overcome resistance to Ctx”. The “resistance to Ctx when VEGFR1 expression is inhibited” value ([2]; VEGFR1 siRNA 100 nM) was “could not overcome resistance to Ctx”, the “resistance to Ctx when cMet expression is inhibited” value ([2]; cMet siRNA 100 nM) was “could not overcome resistance to Ctx” and the “resistance to Ctx when integrin β1 expression is inhibited” value ([2]; integrin β1 siRNA 100 nM) was “could not overcome resistance to Ctx”. The “resistance to Ctx when integrin β3 expression is inhibited” value ([2]; integrin β3 siRNA 100 nM) was “overcame resistance to Ctx; also recorded: could overcome resistance to Ctx”, the “Responsiveness to Cetuximab” value [3] was “Resistant” and the “change in the weight of the mice (toxicity)” value [4] was “little or no change in the weight of the mice”. For the same substance, the “cell growth inhibition (MTT)” value ([5]; AsPC-1 (Ctx^S), 0, 1, 2, 4 μM twice at 48-hour intervals, total 96 hours) was “showed the same cell growth inhibitory ability”, the “Responsiveness to Cetuximab” value ([5]; AsPC-1 pancreatic cancer cell line) was “Sensitive” and the “Responsiveness to Cetuximab” value [6] was “Resistant”. For the same substance, the “tumor growth (tumor volume, tumor weight)” value [7] was “showed resistance”.

“Also recorded” adds a separate entry of the source.
